Nrf2 activator: activators of Nrf2 (ARE) signaling; Potency, µM (doses to about 46.1 µM), without a hit: at the highest dose activation, most hits filed as activators; AID 624171; AREc32 ARE-luciferase reporter (MCF7-derived line), luminescence, 24 h; 410,000 tested, 0.31% active; also: potency is read from the fitted curve at half-maximal effect; % of control where 0% means no effect; nearly all actives have a fitted effect of over 65% in size
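Reporter line AREc32 (ARE-Fluc), seeded overnight in OPTI-MEM with 5% FBS; compound pin-transferred, 24 hr at 37 deg C, 5% CO2; luminescent read-out.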
A549 viability: A549 cytotoxicity, counter-screen for Nrf2 inhibitors | AID 504648 | 390,000 tested, 0.16% active | A549 ARE-Fluc cells, CellTiter-Fluor viability, 18-24 h | Potency, µM (doses to about 46 µM), for inactives: at the highest dose activity change, negative = cytotoxicity, usual class: inhibitors; also: potency is read from the fitted curve at half-maximal effect; % is scaled to controls: 0 for no effect and ±100 for the full control effect
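Cytotoxicity counterscreen: CellTiter-Fluor fluorescence was measured in A549 ARE_Fluc cells after 18-24 h of compound exposure in a concentration series. The subsequent BugLite luminescent read reports ARE-luciferase activity.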
Mito fusion yeast: mitochondrial division inhibition or fusion activation. S. cerevisiae fusion-defective mutant growth rescue, CellTiterGlo 48 h. Potency, µM (doses to about 46.1 µM), for inactives: at the highest dose growth rescue (activation), usual class: activators. 320,000 tested, 0.23% active; also: potency is read from the fitted curve at half-maximal effect; % of control where 0% means no effect; nearly all actives have a fitted effect of over 45% in size
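Growth-rescue viability read-out: after 48 h at the non-permissive 37C in glycerol/ethanol YPEG, yeast mitochondrial fusion mutants are measured by CellTiterGlo luminescence; compounds (23 nl pinned per well) restoring growth score as division inhibitors or fusion activators.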
Nrf2 inh: Nrf2 pathway inhibition; A549 ARE-Fluc reporter, luciferase luminescence, 18-24 h; Potency, µM (titrated, usually from 46 µM), inactives show top-dose activity change, negative = inhibition, usual class: inhibitors; 360,000 tested, 2.1% active; AID 504444; also: potency is read from the fitted curve at half-maximal effect; % is scaled to controls: 0 for no effect and ±100 for the full control effect; nearly all actives have a fitted effect of over 60% in size
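Reporter: ARE-Fluc in A549. Exposure: 18-24 h, 37 °C, 5% CO2, 5% FBS OPTI-MEM. Readouts: fluorescent cytotoxicity (CellTiter-Fluor), then luminescent Nrf2 signal after BugLite.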
miR-21 FLuc: raises the signal of a miR-21 reporter; 340,000 tested, under 10 active; HeLa miR-21 FLuc reporter, luciferase, 48 h; Potency, µM (series often up to 38.3 µM), for inactives: at the highest dose reporter change, positive = more light; active = well fitted rising curve with a large enough effect; inconclusive = small, poorly fitted or top-dose-only effect; inactive = no such curve, though single readings can be large or run the other way;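 further: % of control where 0% means no effect; miR-21 action dims this reporter so a rising signal means less miR-21 action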
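Using DMEM plus 10% FBS, HeLa miR-21-FLuc cells are incubated with test compounds (final up to about 40uM) for 48 hours; firefly luciferase signal is then imaged following reagent-mediated lysis.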
* marks the source's active call; other numbers are inactive results; ? = inconclusive; . = no result; ! = not active in a repeat; [ ] = another dose, or the depositor's remark. This is a sample that favours compounds with a hit; in the whole collection about 2.3% have one here. Unless noted, calls follow the shape of the dose curve; as a rule, active = well fitted curve in the direction sought with a large enough effect; inconclusive = small, poorly fitted or top-dose-only effect, or another doubt; inactive = no such curve, though single readings can be large; an effect the other way counts as inactive or inconclusive.

nr	Compound	Nrf2 activator	A549 viability	Mito fusion yeast
1	COC(=O)C1=C[C@@H](C(=O)OC)C2C3=C(C(=O)[C@@]2(CC(C)C)NC(=O)c2ccccc2)[C@H](C)n2c(=O)n(C)c(=O)n2[C@@H]3C1 (stereo partly specified)	.	-0.5%	.
2	CCCN1CCN(CCNC(=O)Nc2ccccc2OCC)CC1	0.5%	15.1%	.
3	COc1cccc(CNc2nc3c(-c4ccccc4)nnn3c3ccccc23)c1	-0.3%	6.0%	.
4	O=C(Cn1cc(S(=O)(=O)Cc2cccc(Cl)c2)c2ccccc21)Nc1ccccc1C(F)(F)F	-0.6%	-10.5%	.
5	COc1ccc2c(c1OC)C(=O)N1N=C(c3ccc(Br)cc3)CC21 (stereo unspecified)	-0.5%	-15.1%	15.8µM*
6	COc1ccccc1C1CC(c2ccc(Br)cc2)=NN1C(=O)c1cccnc1 (stereo unspecified)	6.2%	-7.1%	15.8µM*
7	COc1ccc(C2=NN(C(=O)c3ccncc3)C(c3ccccc3O)C2)cc1 (stereo unspecified)	3.2%	-7.7%	18.0%
8	COc1cccc(C2CC(c3ccc(Br)cc3)=NN2C(=O)c2ccncc2)c1OC (stereo unspecified)	3.4%	-15.1%	-0.6%
9	O=S(=O)(c1ccc2c(c1)OCCO2)N1CCN(S(=O)(=O)c2ccccc2F)CC1	.	-6.2%	.
10	O=C(CSc1nc2ccccc2n1S(=O)(=O)c1cccc([N+](=O)[O-])c1)NCCc1ccccc1	-0.3%	?	-2.3%
11	Cc1cc(C)c(S(=O)(=O)c2ccccc2)c(OC(=O)c2c(Cl)cc(Cl)cc2Cl)n1	3.2%	?	-0.5%
12	Cc1cc(C)c(S(=O)(=O)c2ccccc2)c(OC(=O)c2c(F)cccc2F)n1	-0.2%	-2.6%	-4.1%

nr	Nrf2 inh	miR-21 FLuc
1	7.0%	.
2	1.2%	7.6%
3	?	-12.5%
4	-17.9%	-2.0%
5	?	-4.4%
6	?	23.2%
7	?	-13.5%
8	18.4µM*	0.5%
9	-8.4%	.
10	18.4µM*	-24.7%
11	16.4µM*	1.0%
12	?	0.7%

Profiles as entered above.
`COc1ccc2c(c1OC)C(=O)N1N=C(c3ccc(Br)cc3)CC21` (stereo unspecified) is listed with Nrf2 activator = -0.5%; A549 viability = -15.1%; Mito fusion yeast = 15.8µM*; Nrf2 inh = ?; miR-21 FLuc = -4.4%
`COC(=O)C1=C[C@@H](C(=O)OC)C2C3=C(C(=O)[C@@]2(CC(C)C)NC(=O)c2ccccc2)[C@H](C)n2c(=O)n(C)c(=O)n2[C@@H]3C1` (stereo partly specified) is listed with Nrf2 activator = .; A549 viability = -0.5%; Mito fusion yeast = .; Nrf2 inh = 7.0%; miR-21 FLuc = .

(cont.)
nr	Compound	Nrf2 activator	A549 viability	Mito fusion yeast
13	CCC(COC)Oc1cc(NCc2ccccc2)c2ncn(C(C)C)c2c1 (stereo unspecified)	-5.0%	?	17.7%
14	CCC(CO)Oc1cc(NCc2ccccc2)c2ncn(C(C)C)c2c1 (stereo unspecified)	-5.2%	0.5%	.
15	CC(C)n1cnc2c(NCc3ccccc3)cc(N[C@H](C)CO)cc21	-3.2%	23.1µM*	.
16	CCC(COC(=O)c1ccccc1)Oc1cc(NCc2ccccc2)c2ncn(C(C)C)c2c1 (stereo unspecified)	-5.1%	16.4µM*	.
17	O=C(Nc1nnc(S(=O)(=O)N2CCCc3ccccc32)s1)c1ccccc1Cl	12.3%	8.5%	.
18	CCc1ccc2nc(N(CCN(CC)CC)C(=O)c3cccs3)sc2c1	0.0%	8.9%	.
19	CCOc1ccc(-c2cc(CCCC(=O)NCCc3cc(OC)c(OC)c(OC)c3)no2)cc1	-0.8%	-4.2%	.
20	COc1ccc(-c2noc(CCC(=O)NCCc3cccc(C)c3)n2)cc1	-0.8%	-9.2%	-3.6%
21	COc1ccccc1NC(=O)CCCc1nc(-c2ccc(OC)c(OC)c2)no1	-0.2%	4.4%	5.4%
22	COc1ccc(-c2noc(CCCC(=O)NC3CCCCC3)n2)cc1	-0.8%	-20.3%	0.3%
23	COc1ccc(-c2noc(CCCC(=O)NCCc3ccccc3)n2)cc1OC	-0.8%	-2.6%	-1.6%
24	CSc1ccc(CCNC(=O)Cn2ncc3c(=O)oc4ccc(C)cc4c32)cc1	-0.1%	0.4%	.

nr	Nrf2 inh	miR-21 FLuc
13	18.4µM*	.
14	0.0%	.
15	?	.
16	23.1µM*	.
17	?	1.1%
18	15.3%	-4.7%
19	14.6µM*	?
20	23.1µM*	-7.8%
21	?	-1.8%
22	20.6µM*	15.5%
23	23.1µM*	-12.4%
24	10.2%	27.9%

The listing continues.
nr	Compound	Nrf2 activator	A549 viability	Mito fusion yeast
25	O=C(CC(Nc1ccccc1Cl)C(=O)O)c1ccccc1 (stereo unspecified)	?	2.5%	-2.1%
26	Cc1c(Cl)cccc1NC(CC(=O)c1ccccc1)C(=O)O (stereo unspecified)	15.8µM*	-2.8%	6.6%
27	Cc1nn(Cc2ccc(F)cc2)c2sc(C(=O)Nc3ccc(N4CCOCC4)cc3N3CCOCC3)cc12	2.9%	-2.4%	-2.9%
28	CCc1sc(-c2cc3cccc(OC)c3oc2=O)nc1-c1cc(C)ccc1C	.	5.4%	.
29	Cc1oncc1C(=O)Nc1ccc(C(F)(F)F)cc1	-0.6%	-12.6%	20.6µM*!
30	Cc1oncc1C(=O)Nc1ccc2ccccc2c1	7.6%	0.6%	5.0%
31	O=C1CN(C(=O)c2ccc(Br)o2)C(c2ccc(F)cc2)c2cc(F)ccc2N1 (stereo unspecified)	2.0%	-19.1%	10.0%
32	COc1ccc(CNC(=S)NC2CCCC2)cc1	-0.6%[9.22 µM]	14.2%	-3.2%
33	Cc1ccc(CNC(=S)NC2CCC(C(C)(C)C)CC2)cc1 (stereo unspecified)	-1.8%	-22.9%	-14.0%
34	CCN(CC)CCCn1c(C)cc2c(c1=O)C(c1ccccc1)C(C#N)=C(N)O2 (stereo unspecified)	1.1%	1.5%	11.2µM*
35	Cc1ccc2nc(CSc3nc(C)nc4c3oc3ccccc34)[nH]c2c1	-0.4%	?	.
36	N[C@@H](COP(=O)(O)O)C(=O)O	.	.	-14.1%

nr	Nrf2 inh	miR-21 FLuc
25	?	-49.2%
26	6.7%	-57.0%
27	14.6µM*	-27.3%
28	-11.2%	.
29	?	-6.8%
30	?	-60.7%
31	16.4µM*	6.5%
32	42.8%	-12.1%
33	20.6µM*	1.6%
34	4.9%	-1.6%
35	18.4µM*	.
36	.	.

(cont.)
nr	Compound	Nrf2 activator	A549 viability	Mito fusion yeast
37	O=C(Cc1c[nH]c2ccccc12)N/N=C/c1ccccc1O	-0.1%	0.4%	-1.3%
38	CC(C)(C)c1ccc(/C=N/NC(=O)Cc2c[nH]c3ccccc23)cc1	3.0%	?	-5.6%
39	C=C(C)CN(CC)c1nc(N)c2c(N)nc3c(c2c1C#N)CC(=O)N3C12CC3CC(CC(C3)C1)C2	12.8%	-17.2%	-0.7%
40	O=C(Cn1ccc2cc(S(=O)(=O)N3CCCCCC3)ccc21)NCc1ccccc1Cl	5.1%	-1.0%	.
41	CSc1ccc(C2NN=C(c3ccccc3)S2)cc1 (stereo unspecified)	5.01µM*	-0.9%	.
42	Oc1ccccc1C1NN=C(c2ccccc2)S1 (stereo unspecified)	7.08µM*	25.1%	-8.1%
43	CCOc1ccc(NC(=O)CC2C(=O)N(c3cccc(C)c3)C(=O)N2Cc2ccco2)cc1 (stereo unspecified)	0.0%	-2.0%	.
44	CCC1CCCCN1CCCNC(=O)c1sc2nc(C)cc(C)c2c1-n1cccc1 (stereo unspecified)	5.1%	1.6%	.
45	O=C(c1ccc2c(c1)OCCO2)C1CCN(S(=O)(=O)c2ccccc2F)CC1	-0.4%	-20.5%	7.1%
46	CCCc1ccc(S(=O)(=O)N2CCC(c3nnc(-c4cccc(C)c4)o3)CC2)cc1	10.3%	-6.3%	.

nr	Nrf2 inh	miR-21 FLuc
37	13.3%	14.6%
38	25.9µM*	-1.3%
39	13µM*	?
40	?	17.8%
41	?	.
42	?	-43.9%
43	23.1%	-3.7%
44	4.7%	3.5%
45	13µM*	1.1%
46	-6.8%	-4.6%

A different layout for part of the listing above:
41	CSc1ccc(C2NN=C(c3ccccc3)S2)cc1 (stereo unspecified)
42	Oc1ccccc1C1NN=C(c2ccccc2)S1 (stereo unspecified)
assay / entry	41	42
Nrf2 activator	5.01µM*	7.08µM*
A549 viability	-0.9%	25.1%
Mito fusion yeast	.	-8.1%
Nrf2 inh	?	?
miR-21 FLuc	.	-43.9%

Bioassay records from PubChem.
